ChEMBL document CHEMBL3585305, “Structure-Based Design and Optimization of Multitarget-Directed 2H-Chromen-2-one Derivatives as Potent Inhibitors of Monoamine Oxidase B and Cholinesterases” (J Med Chem, 2015)

Assay: Efflux ratio of apparent permeability from basolateral to apical side to apical to basolateral side in MDCK2 cells expressing MDR1 at 200 ug/ml by UV-visible spectroscopy
Format: ADME, cell-based, Canis lupus familiaris
Details: dog, mdck-ii

CN1C(=O)CN=C(c2ccccc2)c2cc(Cl)ccc21 [DIAZEPAM]
Ratio: 0.79
